Test system: human embryonic fibroblasts (HEF)
Test: cDC1 reprogramming efficiency of human embryonic fibroblasts, flow cytometry for CD45+HLA-DR+ cells at day 9
Type: cell-based
Settings: HEF with Dox-inducible PIB
Experimental: HEFs, HDFs and Clec9a-tdTomato MEFs were seeded at a density of 40,000 cells per well and MSCs at a density of 50,000 cells per well on 0.1% gelatin coated 6-well plates. On the following day, cells were incubated overnight with either a ratio of 1:1 TetO-PIB and M2rtTA, SFFV-PIB-GFP or SFFV-GFP lentiviral particles in media supplemented with 8 μg/ml polybrene. Cells were transduced overnight twice in consecutive days and media replaced in between. After the second transduction, media was replaced by normal growth media (day 0). When using TetO-PIB, media was supplemented with Dox (1 μg/ml). Media was changed every 2-3 days for the duration of cultures. […]
For the analysis of surface marker expression, human and mouse cells were dissociated and incubated with antibodies diluted in PBS 5% FBS at 4° C. for 30 minutes in the presence of mouse or rat serum (1/100, GeneTex), for human and mouse cells respectively, to block unspecific binding. Cells were washed and resuspended in PBS 5% FBS and analyzed in BD FACSCanto II or BD LSRFortessa flow cytometers (BD Biosciences), unless stated otherwise. […] Flow cytometry data were analyzed using FlowJo software (FLOWJO, LLC, version 10.6.1). […]
17 human hematopoietic cytokines including inflammatory mediators (Table 3) were individually added to the culture media 2 days after PIB induction in HEFs, and reprogramming efficiency was measured at day 9. […]

B1: IFN-β: cytokine (protein, UniProt P01574 22-187, looked up)
Interferon beta: MSYNLLGFLQRSSNFQCQKLLWQLNGRLEYCLKDRMNFDIPEEIKQLQQFQKEDAALTIYEMLQNIFAIFRQDSSSTGWNETIVENLLANVYHQINHLKTVLEEKLEKEDFTRGKLMSSLHLKRYYGRILHYLKAKEYSHCAWTIVRVEILRNFYFINRLTGYLRN
**Q.** How did the “fold increase in reprogramming efficiency versus condition without cytokines” value turn out when B1 was run?
**A.** The value was 4 fold.

— US20250186489A1, “REPROGRAMMING OF CELLS TO TYPE 1 CONVENTIONAL DENDRITIC CELLS OR ANTIGEN-PRESENTING CELLS” (Asgard Therapeutics AB, priority 2021, published 2025)
